Experimental data reported in publication PMC7221417 (European journal of medicinal chemistry, 2020).

Assay: Qualitative solubility in water and organic solvents
Assay type: physicochemical

solubility in water (qualitative): poorly soluble in water
Compound: C1=CCCC=CCC1.CC(C)(C#N)c1cc(Cn2cncn2)cc(C(C)(C)C#N)c1.CC(C)(C#N)c1cc(Cn2cncn2)cc(C(C)(C)C#N)c1.[Cl-].[Cl-].[Ru+2] [Complex 1, RuCOD(ATZ)2Cl2]
solubility in organic solvents (qualitative): soluble in acetone, alcohols and dimethyl sulfoxide (DMSO)
